# Data taken from ChEMBL document CHEMBL1151206, “Glycosidase-inhibiting pyrrolidines and pyrrolizidines with a long side chain in Scilla peruviana” (J Nat Prod, 2004).
# Tested on: maltase-glucoamylase (Rattus norvegicus)
# Experiment: Inhibition of rat intestinal maltase at 1000 uM by spectrophotometry
structure (smiles),measurement,value
CC(O)C[C@H]1N[C@H](CO)[C@@H](O)[C@@H]1O (stereo partly specified),inhibition,< 50%
